The record followed here is patent US9375407B2, “Dimethyl trisulfide as a cyanide antidote” (dated 2016).

The nature of this test: In vivo antidotal efficacy in a mouse model (Dixon up-and-down LD50 of KCN). The settings on record: KCN sc.

Several values for one entry are separate records, joined by “and”; a condition that tells them apart may be missing. Equal values may be shown once.

In the case of sodium thiosulfate, the “APR (LD50 of CN with antidote/LD50 of CN without antidote)” value is, setting by setting: (antidote 100 mg/kg im) 1.1; (antidote 200 mg/kg im) 1.3.

As to dimethyl trisulfide, the “APR (LD50 of CN with antidote/LD50 of CN without antidote)” value is, setting by setting: (antidote 12.5 mg/kg im) 2.1; (antidote 25 mg/kg im) 1.7; (antidote 50 mg/kg im) 2.04 and 2.0; (antidote 100 mg/kg im) 3.4 and 3.2; (antidote 200 mg/kg im) 4.1. For the same compound, the “in vivo antidotal efficacy, DMTS vs TS” value (antidote im, comparison with TS) is on record as “superior”.

As for `O=NO`, the “APR (LD50 of CN with antidote/LD50 of CN without antidote)” value is 1.0 (antidote 3.2 mg/kg im) and 1.3 (antidote 6.4 mg/kg im).
